The values below are quoted from earlier work in patent US10213397B2, “Microtubule polymerization modulators for treating LMNA-related dilated cardiomyopathy” (priority 2016, dated 2019).

The structures appear in SMILES notation.

The conditions of this series: reported adverse reactions; cited from earlier work.

Regarding `COc1cc2c(c(OC)c1OC)-c1ccc(OC)c(=O)cc1[C@@H](NC(C)=O)CC2` [colchicine], the “frequency of diarrhea (gastrointestinal, very common)” value is on record as 23%; the “frequency of nonthrombocytopenic purpura rashes, rashes, urticaria, dermatitis (dermatologic, very rare)” value is on record as “less than 0.01%”; the “frequency of peripheral neuritis, sensory motor neuropathy (nervous system, rare)” value is “less than 0.1%”.
